The target of test [1] is T1, Transient receptor potential cation channel subfamily V member 1 (Rattus norvegicus, UniProt O35433). Description: Antagonist activity at rat TRPV1 expressed in CHO cells assessed as inhibition of acid-induced calcium influx. Type of test: functional, cell-based. In a few lines:
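CHO cells stably transfected with human or rat TRPV1 were preincubated with compound for 2 min at room temperature. After washout, uptake was read by scintillation counting. IC50 values come from inhibition curves, averaging at least two experiments run in triplicate.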

Protein sequences, listed by entry. Tags and fused reporters are not part of them.
UniProt O35433, whole entry: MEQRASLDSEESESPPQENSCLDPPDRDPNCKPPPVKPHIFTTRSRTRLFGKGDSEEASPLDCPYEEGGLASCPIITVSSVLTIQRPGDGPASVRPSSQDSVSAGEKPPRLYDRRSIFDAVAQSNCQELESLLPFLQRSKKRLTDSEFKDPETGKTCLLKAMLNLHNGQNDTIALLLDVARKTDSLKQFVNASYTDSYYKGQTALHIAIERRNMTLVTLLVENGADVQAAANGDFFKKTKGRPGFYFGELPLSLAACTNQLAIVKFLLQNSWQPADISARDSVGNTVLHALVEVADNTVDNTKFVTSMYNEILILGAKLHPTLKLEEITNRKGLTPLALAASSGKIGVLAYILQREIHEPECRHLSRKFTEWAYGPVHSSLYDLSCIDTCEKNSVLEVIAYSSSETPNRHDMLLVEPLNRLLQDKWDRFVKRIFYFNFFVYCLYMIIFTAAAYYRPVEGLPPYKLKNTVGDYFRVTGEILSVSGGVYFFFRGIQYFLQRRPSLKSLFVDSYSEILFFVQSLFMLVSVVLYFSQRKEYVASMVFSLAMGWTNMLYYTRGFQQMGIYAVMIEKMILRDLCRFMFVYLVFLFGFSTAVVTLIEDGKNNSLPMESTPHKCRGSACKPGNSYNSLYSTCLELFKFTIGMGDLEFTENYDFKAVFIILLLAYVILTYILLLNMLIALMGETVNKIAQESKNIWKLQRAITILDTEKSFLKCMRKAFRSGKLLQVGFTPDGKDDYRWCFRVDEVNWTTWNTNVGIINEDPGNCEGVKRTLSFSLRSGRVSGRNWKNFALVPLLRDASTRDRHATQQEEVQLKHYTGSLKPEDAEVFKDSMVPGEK

Test [2] concerns the target T1, Transient receptor potential cation channel subfamily V member 1. Nature of the test: Antagonist activity at rat TRPV1 expressed in CHO cells assessed as inhibition of capsaicin-induced calcium influx. Type of test: functional, cell-based. The procedure, abridged:
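Human or rat TRPV1-CHO cells were preincubated with compound for 2 min at room temperature in HBSS with 0.1 mg/mL BSA and 1 mM HEPES pH 7.4. Cells were washed and radioactivity counted. IC50 is the mean of at least two experiments, triplicate per concentration, ±SEM.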

The term IC50 denotes the concentration needed to halve the response being measured. On to `CC(C)(C)c1ccc(/C=C/C(=O)Nc2ccc3c(c2)OCCO3)cc1`, for which the IC50 in test [1] came to 350 nM; in test [2], 79 nM. For `FC(F)(F)c1ccc(-c2cc(Nc3ccc4cccnc4c3)ncn2)cc1`, the IC50 in test [2] is 4.5 nM.

The record behind these values is ChEMBL document CHEMBL1145458, “Novel vanilloid receptor-1 antagonists: 1. Conformationally restricted analogues of trans-cinnamides” (J Med Chem, 2007).
